{
  "source": "ChEMBL document CHEMBL1128075",
  "about": "“Chemical modification and structure-activity relationships of pyripyropenes; potent, bioavailable inhibitor of acyl-CoA: Cholesterol O-acyltransferase (ACAT)” (Bioorg Med Chem Lett, 1995)",
  "target": "T1, Sterol O-acyltransferase 2 (Rattus norvegicus, UniProt Q7TQM4)",
  "T1 sequence (Q7TQM4 whole entry)": "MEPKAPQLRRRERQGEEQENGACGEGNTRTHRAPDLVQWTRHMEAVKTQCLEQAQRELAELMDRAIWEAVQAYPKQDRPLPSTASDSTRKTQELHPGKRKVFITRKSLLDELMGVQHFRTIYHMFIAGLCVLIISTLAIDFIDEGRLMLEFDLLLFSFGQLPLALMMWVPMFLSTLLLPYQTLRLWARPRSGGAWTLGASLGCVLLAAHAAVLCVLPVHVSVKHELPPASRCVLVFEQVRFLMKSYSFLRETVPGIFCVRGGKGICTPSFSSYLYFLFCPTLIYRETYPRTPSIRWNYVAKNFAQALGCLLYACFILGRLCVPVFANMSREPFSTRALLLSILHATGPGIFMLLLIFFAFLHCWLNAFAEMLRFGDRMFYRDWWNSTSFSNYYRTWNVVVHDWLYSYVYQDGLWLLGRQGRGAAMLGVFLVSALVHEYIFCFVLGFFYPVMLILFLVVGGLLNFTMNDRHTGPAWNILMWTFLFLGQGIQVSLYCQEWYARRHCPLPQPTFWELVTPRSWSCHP",
  "test": "Inhibitory activity against acyl-CoA:cholesterol O-acyltransferase (ACAT)",
  "note": "pIC50: −log10 of the molar value.",
  "data": [
    {"smiles": "CC(=O)OCC1(C)C2C[C@H](OC(=O)c3ccccc3)[C@@]3(C)Oc4cc(-c5cccnc5)oc(=O)c4[C@H](O)C3[C@@]2(C)CC[C@@H]1OC(C)=O", "note": "(single isomer, unassigned)", "values": [
      {"measurement": "pIC50", "result": 7.07}
    ]}
  ]
}
